Test results reported in patent publication US6825348B2, “Antiviral compounds” (Academia Sinica, priority 2002, dated 2004).

Test system: Spleen phosphodiesterase
Assay: Activity of spleen phosphodiesterase against nucleotide analogs
Conditions: pH 6.5, 37° C., 8 h

## Nc1ncnc2c1ncn2[C@@H]1O[C@H](COP(=O)(O)O)[C@@H](OP(=O)(O)COCCn2cnc3ncnc(N)c32)[C@H]1O [Compound 24, 9-[5′-O-(phosphono)-β-D-furanosyl]adenine-3′-[[1-(adenin-7-yl-ethoxy)methyl]phosphonate]]
  yield of phosphonate 20 and adenosine 5′-monophosphate 21 with spleen phosphodiesterase: about 60%
